Laboratory results taken from PMC4956231, “Molecular Mechanisms for Drug Hypersensitivity Induced by the Malaria Parasite’s Chloroquine Resistance Transporter” (PLoS Pathogens, 2016).

Sequences of proteins named here, by UniProt entry; tags and fusion partners are left off.
UniProt Q9N623, whole entry A220S/K76I/M74I/N326S/N75E/Q271E/R371I: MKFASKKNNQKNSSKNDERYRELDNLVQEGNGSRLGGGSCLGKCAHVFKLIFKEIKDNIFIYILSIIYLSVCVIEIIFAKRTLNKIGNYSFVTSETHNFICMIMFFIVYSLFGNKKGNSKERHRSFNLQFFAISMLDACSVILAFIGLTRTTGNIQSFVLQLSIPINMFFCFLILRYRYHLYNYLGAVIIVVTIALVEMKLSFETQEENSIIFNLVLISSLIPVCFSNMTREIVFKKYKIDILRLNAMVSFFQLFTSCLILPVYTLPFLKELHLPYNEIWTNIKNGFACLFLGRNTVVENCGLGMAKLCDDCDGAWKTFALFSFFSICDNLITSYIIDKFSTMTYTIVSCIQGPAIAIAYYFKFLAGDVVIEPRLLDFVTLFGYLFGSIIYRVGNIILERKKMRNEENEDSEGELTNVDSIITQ

How the values were obtained:
[1] = tested on: P. falciparum Dd2; settings: Dd2 (PfCRT^Dd2); IC50 in line divided by IC50 in drug-sensitive reference strain; cited from earlier work
[2] = tested on: P. falciparum line 106/1^76T; settings: 106/1^76T (PfCRT^K1); IC50 in line divided by IC50 in drug-sensitive reference strain; cited from earlier work
[3] = tested on: P. falciparum line 106/1^76N; settings: 106/1^76N (76N-PfCRT^K1); IC50 in line divided by IC50 in drug-sensitive reference strain; cited from earlier work
[4] = tested on: P. falciparum isolate HON; settings: HON (PfCRT^3D7); IC50 in line divided by IC50 in drug-sensitive reference strain; cited from earlier work
[5] = tested on: P. falciparum line 106/1^76I,352K; settings: 106/1^76I,352K (76I,352K-PfCRT^K1); IC50 in line divided by IC50 in drug-sensitive reference strain; cited from earlier work
[6] = tested on: P. falciparum line 106/1^76I,369F; settings: 106/1^76I,369F (76I,369F-PfCRT^K1); IC50 in line divided by IC50 in drug-sensitive reference strain; cited from earlier work
[7] = tested on: P. falciparum line K1AM; settings: K1AM (163R,356V-PfCRT^K1); IC50 in line divided by IC50 in drug-sensitive reference strain; cited from earlier work
[8] = tested on: 76N-PfCRT^K1; test: [3H]drug transport into Xenopus oocytes expressing PfCRT; assay type: cell-based, Plasmodium falciparum; settings: pH 5.0, 1 μM unlabeled drug (S4 Fig)
Experimental: (§1) For each treatment, 10 oocytes were transferred to a 5 mL polystyrene round bottom tube (Falcon) and washed twice with 3.5 mL of ND96 buffer, with the residual buffer removed by pipette. […] The assay was terminated by removing the reaction buffer with a pipette and washing the oocytes twice with 3.5 mL of ice-cold ND96 buffer. Each oocyte was transferred to a separate well of a white 96-well plate (NUNC or PerkinElmer), incubated overnight at room temperature in 30 μL of 10% SDS, and mixed on an orbital shaker the following day for approximately 5 min. The lysed oocyte was then combined with 150 μL of MicroScint-40 microscintillant (PerkinElmer), the plate covered with a TopSeal-A (PerkinElmer), and the radioactivity measured with a PerkinElmer MicroBeta^2 microplate liquid scintillation analyzer.
(§2) Note that noninjected oocytes and oocytes expressing PfCRT^3D7 take up [^3H]CQ to similar (low) levels via simple diffusion of the neutral species of the drug; this represents the ‘background’ level of [^3H]CQ accumulation in oocytes (refer to Martin et al. for full data and discussion).

[9] = tested on: PfCRT^K1; test: as above; assay type: cell-based, Plasmodium falciparum; settings: for rate of uptake mediated by PfCRT^K1 relative to PfCRT^Dd2: pH 5.0, 1 μM unlabeled drug (S4 Fig)
Experimental: as §1, §2

[10] = target: 76I-PfCRT^K1 (Plasmodium falciparum, UniProt Q9N623, A220S/K76I/M74I/N326S/N75E/Q271E/R371I); assay type: cell-based; settings: for rate of transport via 76I-PfCRT^K1 relative to 76I-PfCRT^Dd2: pH 5.0, 1 μM unlabeled drug (S4 Fig)
[11] = tested on: P. falciparum line 106/1^76I; settings: 106/1^76I (76I-PfCRT^K1); IC50 in line divided by IC50 in drug-sensitive reference strain; cited from earlier work
[12] = tested on: P. falciparum line 106/1^72R,76I; settings: 106/1^72R,76I (72R,76I-PfCRT^K1); IC50 in line divided by IC50 in drug-sensitive reference strain; cited from earlier work
[13] = tested on: P. falciparum line 106/1^76I,352R; settings: 106/1^76I,352R (76I,352R-PfCRT^K1); IC50 in line divided by IC50 in drug-sensitive reference strain; cited from earlier work
[14] = tested on: P. falciparum 106/1; settings: 106/1 (76K-PfCRT^K1); IC50 in line divided by IC50 in drug-sensitive reference strain; cited from earlier work

Compound: C=C[C@H]1C[N@@]2CC[C@H]1C[C@H]2[C@H](O)c1ccnc2ccc(OC)cc12 [quinine]
- Drug susceptibility (In vitro resistance index) [1]: 1.82 ± 0.31
- Drug susceptibility (In vitro resistance index) [2]: 1.69 ± 0.19
- Drug susceptibility (In vitro resistance index) [3]: 1.56 ± 0.16
- Drug susceptibility (In vitro resistance index) [4]: 1
- Drug susceptibility (In vitro resistance index) [5]: 0.93 ± 0.25
- Drug susceptibility (In vitro resistance index) [6]: 0.28
- Drug susceptibility (In vitro resistance index) [7]: 0.72
- transport activity of 76N-PfCRT^K1 relative to 76N-PfCRT^Dd2 [8]: 3.1 times
- rate of uptake mediated by PfCRT^K1 relative to PfCRT^Dd2 [9]: 1.2–1.3 times
- Km ([9]; transport via PfCRT^K1 in oocytes, CQ pH 6.0, quinine and quinidine pH 5.0, 76K-PfCRT^K1 control subtracted, read-out: Apparent Km): 28.8 ± 2.7 µM
- rate of transport via 76I-PfCRT^K1 relative to 76I-PfCRT^Dd2 [10]: 0.55 times
- Drug susceptibility (In vitro resistance index) [11]: 0.11 ± 0.04
- Drug susceptibility (In vitro resistance index) [12]: 0.76 ± 0.07
- Drug susceptibility (In vitro resistance index) [13]: 0.99 ± 0.16
- Drug susceptibility (In vitro resistance index) [14]: 1.08 ± 0.06

Compound: C=C[C@H]1C[N@@]2CC[C@H]1C[C@@H]2[C@@H](O)c1ccnc2ccc(OC)cc12 [quinidine]
- Drug susceptibility (In vitro resistance index) [1]: 2.88 ± 0.46
- Drug susceptibility (In vitro resistance index) [2]: 1.95 ± 0.05
- Drug susceptibility (In vitro resistance index) [3]: 1.08 ± 0.08
- Drug susceptibility (In vitro resistance index) [4]: 1
- Drug susceptibility (In vitro resistance index) [5]: 1.28 ± 0.07
- Drug susceptibility (In vitro resistance index) [6]: 0.98
- transport activity of 76N-PfCRT^K1 relative to 76N-PfCRT^Dd2 [8]: 3.2 times
- rate of uptake mediated by PfCRT^K1 relative to PfCRT^Dd2 [9]: 1.2–1.3 times
- rate of transport via 76I-PfCRT^K1 relative to 76I-PfCRT^Dd2 [10]: 1.5 times
- increase in affinity of 76I-PfCRT^K1 (relative to PfCRT^K1) ([10]; quinidine transport): 3 fold
- Drug susceptibility (In vitro resistance index) [11]: 1.72 ± 0.13
- Drug susceptibility (In vitro resistance index) [12]: 0.87 ± 0.06
- Drug susceptibility (In vitro resistance index) [13]: 0.88 ± 0.02
- Drug susceptibility (In vitro resistance index) [14]: 1.01 ± 0.01
